Several values for one entry are separate records, joined by “and”; a condition that tells them apart may be missing. Equal values may be shown once.

These results are taken from patent publication US20250289861A1 (IMMUNOFORGE, published 2025).

This assay addresses GLP1R on CHO-K1 GLP1R cells (cAMP Hunter Liraglutide bioassay kit). The experiment in a line: cell-based or functional assay.

Regarding “Exendin-4 (positive control) (from UniProt P26349) (peptide)”, the EC50 (pM), cAMP assay on CHO-K1 GLP1R cells (cAMP Hunter Liraglutide bioassay kit) is 5 pM and 8 pM.
